Test results published in PubChem BioAssay AID1511 (Johns Hopkins Ion Channel Center, 2009).
The entries are a selection whose mix differs from that of the whole data set. Some tests of the compounds listed are not included; inactive here does not mean inactive elsewhere. Activity calls are given as the source filed them.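 Rule for the calls: active = activation above the mean of controls blocked by dofetilide plus 5 SD; inactive = the rest.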

By UniProt entry, the sequences of proteins in these tests, tags left out.
UniProt Q12809, whole entry: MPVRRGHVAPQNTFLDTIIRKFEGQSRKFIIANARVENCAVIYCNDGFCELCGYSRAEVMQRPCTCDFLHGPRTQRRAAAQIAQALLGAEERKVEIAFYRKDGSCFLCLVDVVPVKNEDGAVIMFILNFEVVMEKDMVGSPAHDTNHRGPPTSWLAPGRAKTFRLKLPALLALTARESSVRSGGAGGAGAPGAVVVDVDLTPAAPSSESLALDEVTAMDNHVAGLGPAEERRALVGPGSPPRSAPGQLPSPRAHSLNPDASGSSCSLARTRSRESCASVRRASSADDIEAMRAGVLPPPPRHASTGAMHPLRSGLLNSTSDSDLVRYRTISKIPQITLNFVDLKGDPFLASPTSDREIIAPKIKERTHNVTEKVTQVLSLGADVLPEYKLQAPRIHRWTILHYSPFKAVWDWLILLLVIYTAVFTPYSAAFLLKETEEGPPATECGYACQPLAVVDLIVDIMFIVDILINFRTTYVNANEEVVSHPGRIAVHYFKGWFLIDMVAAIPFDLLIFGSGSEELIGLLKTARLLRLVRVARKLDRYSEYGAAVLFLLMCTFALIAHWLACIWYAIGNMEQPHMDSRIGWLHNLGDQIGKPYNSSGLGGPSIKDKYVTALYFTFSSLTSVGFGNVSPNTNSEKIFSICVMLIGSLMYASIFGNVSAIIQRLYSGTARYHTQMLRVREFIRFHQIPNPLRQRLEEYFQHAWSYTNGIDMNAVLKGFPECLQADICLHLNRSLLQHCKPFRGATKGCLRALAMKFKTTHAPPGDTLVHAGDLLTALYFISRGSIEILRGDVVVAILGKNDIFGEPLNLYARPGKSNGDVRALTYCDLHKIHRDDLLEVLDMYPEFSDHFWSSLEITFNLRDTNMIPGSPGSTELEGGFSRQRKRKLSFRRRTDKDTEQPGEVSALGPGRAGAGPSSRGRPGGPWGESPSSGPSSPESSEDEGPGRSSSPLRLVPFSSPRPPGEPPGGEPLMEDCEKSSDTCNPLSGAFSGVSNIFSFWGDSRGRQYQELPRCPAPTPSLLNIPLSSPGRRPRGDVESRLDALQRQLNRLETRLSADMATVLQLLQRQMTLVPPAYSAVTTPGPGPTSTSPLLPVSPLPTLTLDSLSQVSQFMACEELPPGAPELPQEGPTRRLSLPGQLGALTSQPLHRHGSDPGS

These compounds were tested against Voltage-gated inwardly rectifying potassium channel KCNH2 (Homo sapiens) (UniProt Q12809) (assay: PubChem AID 1511). Conditions: CHO-hERG, FluxOR thallium flux, dofetilide IC70 present; at 10 µM; stronger effect = higher value.
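Note: thallium influx through hERG after potassium depolarization seen as dye fluorescence rise.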

Compound	activation (rescue from dofetilide block), less the hit threshold
O=C(NCC1(N2CCCCC2)CCCCC1)c1cc(F)c(F)cc1Cl	inactive: -2.06%
C=CCN1CCN(CCOC(=O)C(O)(c2ccccc2)c2ccccc2)CC1	inactive: -5.02%
O=C(NCC1(N2CCCCC2)CCCCC1)c1cccc(Br)c1	inactive: -6.7%
Cc1cc(C(=O)NCC2(N3CCCCC3)CCCCC2)ccc1[N+](=O)[O-]	inactive: -6.53%
CCN1CCCC(OC(=O)C2(O)c3ccccc3C=Cc3ccccc32)C1 (centres undefined)	inactive: -11.1%
COc1ccc(C(=O)NCC2(N(C)C)CCCCC2)cc1	inactive: -0.41%
CN(C)C1CCCC1OC(=O)C(O)(c1ccccc1)c1ccccc1 (centres undefined)	inactive: -12.8%
CN(C)c1ccc(C(=O)NCC2(N(C)C)CCCCC2)cc1	inactive: -4.01%
Cc1ccccc1C(=O)NCC1(N2CCCCC2)CCCCC1	inactive: -10.4%
CC(C)N1C(=O)CC2(CCN(CCOC(=O)C(O)(c3ccccc3)c3ccccc3)CC2)C1=O	inactive: -6.29%
COc1cc(SC)ccc1C(=O)NCC1(N(C)C)CCCCC1	inactive: 0.2%
CCN(CC)CC(C)C(C)OC(=O)C(O)(c1ccccc1)c1ccccc1 (centres undefined)	inactive: -11.9%
Cc1ccc(C(=O)NCC2(N3CCCCC3)CCCCC2)cc1	inactive: -5.04%
O=C(NCC1(N2CCCCC2)CCCCC1)c1cc([N+](=O)[O-])ccc1Cl	inactive: -1.27%
CN1[C@@H]2CC[C@H]1CC(OC(=O)C(O)(c1ccccc1)c1ccccc1)C2 (some centres undefined)	inactive: -9.68%
COc1ccc(Br)c(C(=O)NCC2(N3CCCCC3)CCCCC2)c1	inactive: -15.3%
CN(C)c1cccc(C(=O)NCC2(N(C)C)CCCCC2)c1	inactive: -8.54%
CC(C)Oc1ccc(C(=O)NCC2(N(C)C)CCCCC2)cc1	inactive: -0.64%
O=C(OC1CN2CCC1CC2)C(CO)(c1ccccc1)c1ccccc1 (centres undefined)	inactive: -5.22%
COc1ccc(Cl)cc1C(=O)NCC1(N(C)C)CCCCC1	inactive: -3.86%
COc1cccc(C(=O)NCC2(N3CCCCC3)CCCCC2)c1	active: 6.13%
O=C(NCC1(N2CCCCC2)CCCCC1)c1cccc(Cl)c1	inactive: -4.63%
CN(C)C1(CNC(=O)c2ccc(Br)cc2)CCCCC1	inactive: -6.22%
COc1cc(C(=O)NCC2(N(C)C)CCCCC2)c([N+](=O)[O-])cc1OC	inactive: -5.95%
